# Earlier results as cited in patent US20090258863A1, “Method for treatment of amyotrophic lateral sclerosis using talampanel” (priority 2008, published 2009).
# Test system: ALS
# Conditions: according to the Physician's Desk Reference; cited from earlier work
smiles,measurement,value
"Nc1nc2ccc(OC(F)(F)F)cc2s1 [Rilutek®, riluzole]",survival and/or time to tracheostomy,extends survival and/or time to tracheostomy
